HCMV NEC inh: cytomegalovirus nuclear egress complex inhibition | HTRF UL50-UL53 interaction, normalized percent inhibition | inhibition, % (test concentration not listed) | 190,000 tested, 0.15% active | AID 1918969; in the data active means inhibition above about 27%, passing the limit was not always enough
GIV-Gai inh: inhibitors of GIV GBA-motif binding to rat Galpha-i3; P08753; Galpha-i3/FITC-GIV peptide fluorescence polarization, 90 min; hits give low values; scaled: aluminum fluoride 0%, vehicle 100%; percent of control (FP), % (test concentration not listed); actives 0.42% (n = 210,000); AID 1224905;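 active = replicate mean at 85% of control or lower, very high polarization wells dropped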;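 also: wells of about 15 µL received 100 nL stock; the first replicate is given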
GIV Gai FP conf: confirmation of inhibitors of GIV binding to rat Galpha-i3. shares compounds with GIV-Gai inh. AID 1259350. fluorescence polarization, mP at 100 µM. FITC-GIV peptide binding to Galphai3, fluorescence polarization; hits give low values. 580 tested, 38% active;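 active means inhibition score of 15 or more, meaning 100 minus mean polarization as percent of control over three replicates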;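 further: lower mP means peptide displaced from Galphai3 so more inhibition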
GIV Gai AS conf: confirmation of inhibitors of GIV binding to human Galpha-i3; shares compounds with GIV-Gai inh; AlphaScreen Galphai3-GIV binding, purified proteins, 90 min; hits give low values; AlphaScreen counts at 100 µM; 580 tested, 39% active; AID 1259351;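 active means inhibition score at or above a set limit, where the score is 100 minus the three-replicate mean percent of control signal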
Active calls of the source: *; . = not tested or not shown. The list is not random: actives were taken first. Their share in the collection is about 0.46%.

Screens in order: HCMV NEC inh, GIV-Gai inh, GIV Gai FP conf, GIV Gai AS conf
CN(C)c1ccc2nc3c(=O)[nH]c(=O)[nH]c3nc2c1
 : ., 77*, 33*, 14401*
Cc1cc2nc3c(=O)[nH]c(=O)[nH]c3nc2cc1N
 : ., 64*, 46*, 30002*
Cc1ccc(NC(=O)CC2(C(F)(F)F)OCCO2)cc1Cl
 : -10, ., ., .
N#CC1=C(SCC(=O)Nc2ccccc2F)NC2=C(C(=O)CCC2)C1c1ccco1 (centres undefined)
 : -35, ., ., .
Cc1ccc2c(COC(=O)c3ccc(Cl)nc3)cc(=O)oc2c1
 : -9, ., ., .
CC(=C\c1ccccc1)/C=C1/SC(=O)N(C(C)C)C1=O
 : -12, 98, ., .
O=C(Nc1ccccc1Cl)c1cn2ccccc2n1
 : -2, ., ., .
Cc1cc2nc(C)c(=O)n(CCC(=O)N3CCN(c4ccccn4)CC3)c2cc1C
 : -26, 106, ., .
COc1cccc(C2=CC(c3ccccc3F)n3c(nc4ccccc43)N2)c1 (centres undefined)
 : ., 101, ., .
COc1ccccc1C1C=C(c2cccnc2)Nc2nc3ccccc3n21 (centres undefined)
 : -52, 69*, 48*, 30087
CCc1cccc2c(/C=C3/C(=O)N(C)c4ccccc43)cn(CC(=O)NC3CCCC3)c12
 : ., 80*, 34*, 42825
CCN(CC)C(=O)Cn1cc(/C=C2/C(=O)N(C)c3ccccc32)c2ccccc21
 : ., 104, ., .
O=C(c1ccccc1)C(Sc1nnc(-c2ccc3c(c2)OCO3)o1)c1ccccc1 (centres undefined)
 : -36, ., ., .
O=S(=O)(c1ccc2c(c1)CCCN2)N1CCCCC1
 : -33, ., ., .
CCN(CC)c1ccc2c(c1)CCCN2
 : -16, 53*, 63, 11170*
COc1ccc(-c2nn3c(Nc4ccccc4)cc(C)nc3c2C)cc1OC
 : -25, 107, ., .
O=c1c(=NNc2ccccc2)c(=O)c2ccccc12
 : -76, 111, ., .
O=c1c(=NNc2nn[nH]n2)c(=O)c2ccccc12
 : -12, 40*, 39*, 17853*
CCC(C)NC(=O)C1CCN(S(=O)(=O)c2ccc3c(c2)CCCC(=O)N3)CC1 (centres undefined)
 : -24, 103, ., .
CC(=O)C1=C(C)NC(SCC(=O)Nc2ccc(Br)cc2)=C(C#N)C1CC(C)C (centres undefined)
 : ., 104, ., .

2 entries from above, reformatted:
SMILES	HCMV NEC inh	GIV-Gai inh	GIV Gai FP conf	GIV Gai AS conf
COc1ccc(-c2nn3c(Nc4ccccc4)cc(C)nc3c2C)cc1OC	-25	107	.	.
O=c1c(=NNc2ccccc2)c(=O)c2ccccc12	-76	111	.	.

Of the compounds above, these have a cyano group:
Screens in order: HCMV NEC inh, GIV-Gai inh, GIV Gai FP conf, GIV Gai AS conf
N#CC1=C(SCC(=O)Nc2ccccc2F)NC2=C(C(=O)CCC2)C1c1ccco1 (centres undefined)
 : -35, ., ., .
CC(=O)C1=C(C)NC(SCC(=O)Nc2ccc(Br)cc2)=C(C#N)C1CC(C)C (centres undefined)
 : ., 104, ., .

Continued.
Screens in order: HCMV NEC inh, GIV-Gai inh, GIV Gai FP conf, GIV Gai AS conf
COc1ccc(OC)c(C2C(C(=O)Nc3nc4ccc(Br)cc4s3)=C(C)NC3=C2C(=O)CC(C)(C)C3)c1 (centres undefined)
 : -8, 88, 63, 54834
COc1ccc(OC)c(C2C(C(=O)Nc3nc4ccccc4s3)=C(C)NC3=C2C(=O)CC(C)(C)C3)c1 (centres undefined)
 : -2, 105, ., .
CCN(CC)C(=O)/C=C/c1ccc2c(c1)OCO2
 : ., 102, ., .
CC(C)(O)C(=O)/C=C/c1ccc2c(c1)OCO2
 : -4, 84*, 69, 27857*
Cc1nn(-c2ccccc2)c2c1C(c1ccc3c(c1)OCO3)C(C#N)C(=O)N2 (centres undefined)
 : -22, ., ., .
Cc1ccc(C)n1Cc1ccc(C(=O)O)cc1
 : 70*, 33*, 48*, 3139*
Cc1cc(C)n(Cc2ccc(C(=O)O)cc2)n1
 : -14, ., ., .
Cc1ccc(C)n1CCC(=O)O
 : -1, 71*, 60, 3780*
Cc1ccn(CCC(=O)O)n1
 : -24, 103, ., .
COc1cc(/C=C2\SC(=S)N(CC(=O)Nc3nnc(CC(C)C)s3)C2=O)cc(OC)c1OC
 : -23, 108, ., .
CCC(C)NC(=O)CCNS(=O)(=O)c1cc(C(=O)OC)n(C)c1 (centres undefined)
 : -18, 106, ., .
CC1=CC(=C2C(=O)NC(=S)NC2=O)C=C(C)N1Cc1ccco1
 : -29, 73*, 48*, 2400*
CC1=CC(=C2C(=O)N(c3ccccc3)N=C2C)C=C(C)N1Cc1ccco1
 : 3, ., ., .
CC(=O)O/N=C(\C)c1[nH]c(C)c(/C(C)=N/OC(C)=O)c1C
 : -7, 106, ., .
O=C1c2ccccc2-c2n[nH]c(=S)nc21
 : -170, 97, ., .
O=C1c2ccccc2-c2nc3nonc3nc21
 : 36, 49*, 44*, 17911*
N#CCCN(C(=O)C12CC3CC(CC(Cl)(C3)C1)C2)c1ccccc1
 : -17, ., ., .
O=C1N=c2ccc(Br)cc2=C1c1sc(=S)n(Cc2ccc(Cl)cc2)c1O
 : -10, 107, ., .
CCOC(=O)c1ccc2nsnc2c1
 : -69, 101, ., .
COC(=O)c1ccc2nsnc2c1
 : ., 86, 65, 37884
CCNc1cc(C)nc(N2CCN(S(=O)(=O)CC)CC2)n1
 : ., 109, ., .
